Measurements published in publication PMC3662788, “The Catalytic Roles of P185 and T188 and Substrate-Binding Loop Flexibility in 3α-Hydroxysteroid Dehydrogenase/Carbonyl Reductase from Comamonas testosteroni” (PLoS ONE, 2013).

Chains of the proteins cited; added tags and fusions are not shown.
UniProt P80702, whole entry P185G: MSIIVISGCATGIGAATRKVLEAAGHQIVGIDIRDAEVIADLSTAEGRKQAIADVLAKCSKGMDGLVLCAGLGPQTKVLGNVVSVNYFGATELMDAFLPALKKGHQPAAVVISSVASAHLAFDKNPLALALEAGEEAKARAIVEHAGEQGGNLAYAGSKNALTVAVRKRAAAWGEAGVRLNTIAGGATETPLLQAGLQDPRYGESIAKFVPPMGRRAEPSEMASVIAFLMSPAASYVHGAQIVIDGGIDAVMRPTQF

Biological target: P185G mutant 3α-HSD/CR (Comamonas testosteroni, UniProt P80702, P185G)
Assay: Steady-state kinetics and primary isotope effects, oxidation of androsterone with NAD^+

NC(=O)c1ccc[n+]([C@@H]2O[C@H](COP(=O)([O-])OP(=O)(O)OC[C@H]3O[C@@H](n4cnc5c(N)ncnc54)[C@H](O)[C@@H]3O)[C@@H](O)[C@H]2O)c1 [NAD^+]
ΔΔGbmut/wt (differential ground-state binding energy, enzyme-NAD^+ complex) (P185G vs wild-type, pH 10.5, Equation 4): 2.6 kcal/mol
kcat/Ka (NAD^+) (P185G, 0.1 M Caps pH 10.5, 25°C): 1.3e+06 ± 400000 M⁻¹ s⁻¹
